# miR-21 reporter: raises the signal of a miR-21 reporter | AID 2288 | 340,000 tested, under 10 active | Potency, µM (series often up to 38.3 µM), without a hit: at the highest dose reporter change, positive = more light | HeLa miR-21 FLuc reporter, luciferase, 48 h; active = well fitted rising curve with a large enough effect; inconclusive = small, poorly fitted or top-dose-only effect; inactive = no such curve, though single readings can be large or run the other way;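 further: % of control where 0% means no effect; miR-21 action dims this reporter so a rising signal means less miR-21 action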
#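 Luminescence from a firefly luciferase reporter carrying a miR-21 binding site downstream, stably expressed under a CMV promoter in HeLa cells that make miR-21 endogenously, reports miRNA modulation after 48 h compound exposure up to approximately 40uM final.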
# TDP1 cell CPT: growth inhibition of DT40 Tdp1-/-;hTDP1 cells with camptothecin (screen for TDP1 inhibitors); actives 12% (n = 420,000); chicken DT40 Tdp1-/-;hTDP1 cells + 20 nM CPT, ATP luminescence, 48 h; Potency, µM (titrated, usually from 46.2 µM), inactives show at the top dose activity change, negative = growth inhibition, most hits filed as inhibitors; note: potency is the fitted concentration of half-maximal effect; % is set by controls: 0 for no effect and ±100 for the full control effect; nearly all actives have a fitted effect of over 55% in size
#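 Chicken DT40 Tdp1-/- cells stably complemented with human TDP1 were seeded at 400 cells/well in medium containing 20 nM camptothecin, exposed to pin-transferred compounds, and grown at 37 °C for at least 48 hr. Viability was read as ATP luminescence.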
# uPA generation: blocks generation of uPA at the cell surface; cell surface uPA generation assay, qHTS; Potency, µM (doses to about 38.3 µM), for inactives: at the top dose activity change, negative = inhibition, usual class: inhibitors; actives 0.31% (n = 330,000); AID 540303; active = well fitted inhibition curve with a large enough effect; inconclusive = small, poorly fitted or top-dose-only effect; inactive = no such curve, though single readings can be large or run the other way; tested in mouse RAW 264.7 cells; note: potency is the fitted concentration of half-maximal effect; % is set by controls: 0 for no effect and ±100 for the full control effect; nearly all actives have a fitted effect of over 55% in size
# TDP1 cell noCPT: qHTS for Inhibitors of human tyrosyl-DNA phosphodiesterase 1 (TDP1): qHTS in cells in absence of CPT; DT40 Tdp1-/- hTDP1 cells, no CPT, ATP luminescence, 48 h; Potency, µM (highest dose often 46.2 µM), inactives show top-dose activity change, negative = growth inhibition, most hits filed as inhibitors; actives 15% (n = 420,000); note: potency is the fitted concentration of half-maximal effect; % is set by controls: 0 for no effect and ±100 for the full control effect; nearly all actives have a fitted effect of over 55% in size
#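 Growth kinetics read by CellTiter-Glo luminescence after ≥48 hr at 37 °C. Cells: DT40 Tdp1-/- stably carrying human TDP1, 400 per well, compound exposure in the absence of CPT (DMSO vehicle).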
# TDP1 inh: blocks human tyrosyl-DNA phosphodiesterase 1; AID 485290; recombinant TDP1, AlphaScreen DNA substrate cleavage; actives 0.28% (n = 350,000); Potency, µM (doses to about 130 µM), inactives show at the highest dose activity change, negative = inhibition, actives largely listed as inhibitors; note: potency is the fitted concentration of half-maximal effect; % is set by controls: 0 for no effect and ±100 for the full control effect; nearly all actives have a fitted effect of over 40% in size
#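 E. coli-derived human Tdp1, 1 nM final. Cpd preinc 15 min RT; substrate 15 nM final, 5 min RT; AS bead mix 10 ug/ml final, 10 min RT. Signal loss = tyrosine-FITC cleavage. No-enzyme wells = max signal.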
# An asterisk follows results filed as active; ? = inconclusive; · = not tested or not shown; [ ] = remark or other dose. Sampled rows, rich in hits. Any-hit rate of the full collection: about 16%. Unless noted, calls come from the whole dose curve; as a rule, active = well fitted curve in the direction sought with a large enough effect; inconclusive = small, poorly fitted or top-dose-only effect, or another doubt; inactive = no such curve, though single readings can be large; an effect the other way counts as inactive or inconclusive.
# Sample of the layout, four compounds:
Compound,miR-21 reporter,TDP1 cell CPT,uPA generation,TDP1 cell noCPT,TDP1 inh
O=C(C1CCCN(S(=O)(=O)c2cccc3nsnc23)C1)N1CC=C(c2ccccc2)CC1 (stereo not drawn),27%,13µM*,-9%,10µM*,3%
CC1CCCCN1C(=O)C1CCCN(S(=O)(=O)c2cccc3nsnc23)C1 (stereo not drawn),-4%,?,3%,-19%,4%
O=C(O)c1ccccc1NC(=O)C1CCN(S(=O)(=O)c2cccc3nsnc23)CC1,3%,-20%,-2%,16µM*,5%
Cc1ccc(NC(=O)C2CCN(S(=O)(=O)c3cccc4nsnc34)CC2)cc1,1%,-13%,·,?,5%

# Results, repeating the preview:
Compound,miR-21 reporter,TDP1 cell CPT,uPA generation,TDP1 cell noCPT,TDP1 inh
O=C(C1CCCN(S(=O)(=O)c2cccc3nsnc23)C1)N1CC=C(c2ccccc2)CC1 (stereo not drawn),27%,13µM*,-9%,10µM*,3%
CC1CCCCN1C(=O)C1CCCN(S(=O)(=O)c2cccc3nsnc23)C1 (stereo not drawn),-4%,?,3%,-19%,4%
O=C(O)c1ccccc1NC(=O)C1CCN(S(=O)(=O)c2cccc3nsnc23)CC1,3%,-20%,-2%,16µM*,5%
Cc1ccc(NC(=O)C2CCN(S(=O)(=O)c3cccc4nsnc34)CC2)cc1,1%,-13%,·,?,5%
O=C(NCCc1ccccc1)C1CCCN(S(=O)(=O)c2cccc3nsnc23)C1 (stereo not drawn),-5%,?,0%,13µM*,-5%
O=C(C1CCN(S(=O)(=O)c2cccc3nsnc23)CC1)N1CC=C(c2ccccc2)CC1,11%,18µM*,-9%,16µM*,10%
O=C(CC1CCCCC1)NCc1ccccc1Cl,-44%,-8%,-4%,-23%,4%
CCOc1ccc(CNCc2ccccc2Cl)cc1,-34%,16µM*,?,?,-4%
Clc1ccccc1CNCC1CCC(CNCc2ccccc2Cl)CC1 (stereo not drawn),·,3µM*,·,3µM*,-8%[56.1 µM]
Cc1ccc(CNCc2ccccc2Cl)cc1,-19%,-3%,3%,?,2%
Cc1ccc(C)c(SCC(=O)c2ccc[nH]2)c1,-29%,?,8%,?,4%
CCOC(=O)N1CCN(CC(O)COc2ccc(C)c(C)c2)CC1 (stereo not drawn),-1%,-4%,-23%,1%,·
COCc1c(C(=O)N/N=C(/C)c2ccc(OCc3ccccc3)cc2)nnn1-c1nonc1N,-47%,-12%,-3%,33%,-7%
CC1CN(S(=O)(=O)c2ccc(C(=O)Nc3ccc(S(=O)(=O)N4CCOCC4)cc3)cc2)CC(C)O1 (stereo not drawn),18%,?,0%,13µM*,3%
CC(C)c1ccc(NC(=O)c2cc(Br)ccc2Br)cc1,-32%,?,3%,26µM*,-5%
Cc1ccc(S(=O)(=O)N2CCOCC2)cc1C(=O)Nc1ccc(N2CCCCCC2)cc1,·,4.6µM*,0%,4.6µM*,12%
O=C(Nc1ccc(S(=O)(=O)N2CCOCC2)cc1)c1ccc(S(=O)(=O)N2CCOCC2)cc1,1%,-5%,2%,-4%,·
O=C(Nc1ccc(S(=O)(=O)N2CCOCC2)cc1)c1ccc(Cl)cc1,11%,21µM*,-11%,21µM*,·
Cc1ccc(S(=O)(=O)N2CCCCC2)cc1C(=O)Nc1ccc(S(=O)(=O)Nc2ncccn2)cc1,-5%,2%,7%,4%,32µM*
O=C(Nc1ccc(S(=O)(=O)N2CCOCC2)cc1)c1cc(S(=O)(=O)N2CCOCC2)ccc1Cl,10%,18µM*,-1%,?,3%
O=C(Nc1ccc(N2CCCC2)cc1)c1cc(Br)ccc1Cl,4%,3.7µM*,-14%,4.6µM*,·
O=C(Nc1ccc(Cc2ccncc2)cc1)c1ccc(S(=O)(=O)N2CCOCC2)cc1,26%,?,-7%,18µM*,0%
Cc1ccc(S(=O)(=O)N2CCCCCC2)cc1C(=O)Nc1cccnc1,4%,-22%,18%,-20%,3%
Cc1ccc(C(=O)Nc2ccc(S(=O)(=O)N3CCOCC3)cc2)cc1,-4%,-5%,1%,-38%,3%
CS(=O)(=O)c1ccc(C(=O)Nc2ccc(N3CCCC3)cc2)c(Cl)c1,-7%,15%,7%,-15%,-2%
O=C(O)c1cccc(-n2c(-c3cnccn3)n[nH]c2=S)c1,1%,6%,0%,5%,?
CCN(Cc1nc2ccccc2c(=O)[nH]1)C(=O)c1cc2c(s1)CCCCC2,·,15µM*,12%,?,0%
CCN(Cc1nc2ccccc2c(=O)[nH]1)C(=O)c1cccc(NC(=O)c2cccs2)c1,·,12µM*,0%,?,-8%[0.505 µM]

# Screening results from PubChem.
